The entries are a selection whose mix differs from that of the whole data set. Results filed as inconclusive are left out. The source made the active and inactive calls. Calls follow the shape of the dose curve; as a rule, active = well fitted cell-killing curve with a large enough effect; inconclusive = small, poorly fitted or top-dose-only effect; inactive = no such curve, though single readings can be large or run the other way.
% is scaled to controls: 0 for no effect and ±100 for the full control effect.

This experiment is described as follows: qHTS Screen for Compounds that Selectively Target Cancer Cells with p53 Mutations: Cytotoxicity of p53ts Cells at the Nonpermissive Temperature. Also: nearly all actives have a fitted effect of over 55% in size. The following applies: H1299-p53A138V viability at 39C, ATP luminescence, 24 h; at 46.1 µM (top of the series) unless noted. Background: Quantitative high-throughput screening tests each substance at several concentrations.
Turning to `O=P(Nc1nccs1)(c1ccccc1)c1ccccc1`, the activity change, negative = cell killing was inactive: -1.34%.

For the compound `CC(C)C(=O)NC(Sc1ccccc1)C(Cl)(Cl)Cl` (stereo unspecified), the activity change, negative = cell killing was inactive: 11.7%.

As for `c1nnnn1CCn1cnnn1`, the activity change, negative = cell killing was inactive: 8.01%.

Consider `CN1CCC[C@H](OC(=O)C(c2ccccc2)c2ccccc2)C1`, for which the activity change, negative = cell killing was inactive: 5.4% [at 9.22 µM]. Turning to `C[C@@H](O)COc1ccc([As](=O)(O)O)cc1N`, the activity change, negative = cell killing is inactive: -6.91% [at 9.22 µM].

On to `Cc1cc([N+](=O)[O-])cc([N+](=O)[O-])c1O`, for which the activity change, negative = cell killing is inactive: -21.1%.

For `[N-]=[N+]=Nc1ccc([As](=O)(O)O)cc1`, the activity change, negative = cell killing is inactive: 32.1% [at 9.22 µM]. The figure for `O=C(OC1CN2CCC1CC2)c1cccc(Cl)c1` (stereo unspecified) is inactive: -1.17%; for `COC(=O)c1cc2c(s1)N=C(c1ccccc1)N(C)P2(=O)N1CCOCC1` (stereo unspecified) it is inactive: 6.39%; for `O=P1(Nc2nc3ccc(Cl)cc3s2)COc2ccccc2O1` (stereo unspecified) it is inactive: -16.9%.

Take `CN1CCCC(OC(=O)C(c2ccccc2)c2ccccc2)C1` (stereo unspecified): the activity change, negative = cell killing is inactive: 6.63%.

On to `O=[N+]([O-])c1ccc(C[As](=O)(O)O)cc1`, for which the activity change, negative = cell killing was inactive: 2.12% [at 9.22 µM]. The result for `NCC[C@@H](N)CSP(=O)(O)O` reads inactive: -5.07% [at 9.22 µM]; that for `Cc1cc(SC(NC(=O)c2ccc(F)cc2)C(Cl)(Cl)Cl)ncn1` (stereo unspecified), inactive: -16.8%; that for `[N-]=[N+]=NCC(O)CN=[N+]=[N-]` (stereo unspecified), inactive: -0.772% [at 9.22 µM].

As for `C(Cc1nn[nH]n1)c1nn[nH]n1`, the activity change, negative = cell killing was inactive: -2.19% [at 9.22 µM].

On to `CCc1nc2c(n1)c1c(non1O)c1c2no[n+]1[O-]`, for which the activity change, negative = cell killing was inactive: -8.78%. The figure for `O=C(CO)Nc1ccc([As](=O)(O)O)cc1` is inactive: -0.145% [at 9.22 µM]; for `COP1(=S)c2c(C)nn(CCC#N)c2N=C(c2ccc(F)cc2)N1C` (stereo unspecified) it is inactive: -5.11%; for `O=C(COc1ccccc1)OC1CN2CCC1CC2` (stereo unspecified) it is inactive: 9.63%.

For the compound `O=C(O)[C@@H](O)c1ccc([As](=O)(O)O)cc1`, the activity change, negative = cell killing was inactive: -9.02% [at 9.22 µM]. In the case of `CCC(C)N(CC(C)C)C(=S)SC(NC(C)=O)C(Cl)(Cl)Cl` (stereo unspecified), the activity change, negative = cell killing is inactive: -13.1%.

Take `Cc1cc(SC(NC(=O)c2ccccc2)C(Cl)(Cl)Cl)nc(C(C)C)n1` (stereo unspecified): the activity change, negative = cell killing was inactive: -0.433%. As for `ClCCSc1nnc(-c2cccnc2)o1`, the activity change, negative = cell killing was inactive: -7.17%.

`O=[As]c1ccc(S(=O)(=O)NCCO)cc1` (stereo unspecified): the activity change, negative = cell killing is inactive: 9.96% [at 9.22 µM]. The figure for `[N-]=[N+]=NCC(N)=O` is inactive: -1.56% [at 9.22 µM]; for `Cc1c2c(nc3ccccc13)SC(C(Cl)Cl)C2` (stereo unspecified) it is inactive: 18.5%; for `O=C(OC1CN2CCC1CC2)C12CC3CC(CC(C3)C1)C2` (stereo unspecified) it is inactive: 3.85%. For `NC(=O)Nc1cc([As](=O)(O)O)cc(I)c1O`, the activity change, negative = cell killing is inactive: 0.764% [at 9.22 µM].

With `NS(=O)(=O)Cc1ccc([As](=O)(O)O)cc1`, the activity change, negative = cell killing was inactive: -1.62% [at 9.22 µM]. The result for `O=C(CC(=O)c1ccccc1)O[C@H]1CN2CCC1CC2` reads inactive: -1.11% [at 9.22 µM]; that for `CN(C(=O)Cc1ccc(Cl)c(Cl)c1)[C@@H]1CC[C@@]2(CCCO2)C[C@H]1N1CCCC1`, inactive: -9.32%; that for `CCOP1(=S)c2c(C)nn(CCC#N)c2N=C(c2ccccc2F)N1C` (stereo unspecified), inactive: 2.88%. As to `O=[As](O)(O)c1ccc([As](=O)(O)O)cc1`, the activity change, negative = cell killing was inactive: -2.38% [at 9.22 µM]. Take `CCOP1(=S)c2c(C)nn(CCC#N)c2N=C(c2ccc(F)cc2)N1C` (stereo unspecified): the activity change, negative = cell killing is inactive: -4.13%.

In the case of `Cc1nn(-c2ccccc2)c2c1P(=O)(N1CCOCC1)N(C)C(c1ccccc1)=N2` (stereo unspecified), the activity change, negative = cell killing is inactive: 2.75%.

For the compound `O=P1(Nc2ncccn2)COc2ccccc2OC1`, the activity change, negative = cell killing is inactive: 5.79%. As to `O=P1(Nc2ccc(Br)cn2)COc2ccccc2OC1`, the activity change, negative = cell killing is inactive: 2.25%.

As for `O=P1(Nc2ccccn2)COc2ccccc2OC1`, the activity change, negative = cell killing was inactive: 9.09%. `CN(CCCl)Cc1cc(Cl)c(NC2=NCCN2)c(Cl)c1`: the activity change, negative = cell killing was inactive: 10.4%.

`Clc1n[nH]nc1-c1nn[nH][15n]1`: the activity change, negative = cell killing was inactive: 10%.

(Values after PubChem BioAssay AID902 (National Center for Advancing Translational Sciences (NCATS), 2007).)
